Experimental data as given in patent US6664231B1, “Anti-fungal peptides” (priority 1993, dated 2003).

Key:
mouse RAW 264.7 cells = conditions: RAW 264.7 cell growth inhibited by 50%
[1] = test system: mouse RAW 264.7 cells incubated with E. coli O113 LPS; conditions: RAW 264.7 cells with E. coli O113 LPS; concentration reversing LPS growth inhibition by 50%
Candida krusei = test: Radial diffusion assay, Candida species (Table 2); format: cell-based
Protocol: (§1) The anti-fungal activity of Domain III derived peptides was also evaluated in vitro against a variety of fungal species, including Candida glabrata, Candida krusei, Candida lusitaniae, Candida parapsilosis, and Candida tropicalis. For these experiments, one colony of each of the above-listed Candida strains was picked from a Sabouraud's dextrose agar (SDA) plate and inoculated into 5 mL of Sabouraud's dextrose broth (SDB, 2% dextrose and 1% neopeptone) or, for C. krusei, Yeast Malt broth (YM, Becton Dickenson, Cockeysville, Md., cat no. BL 11405) in 12 mL polyproplyene snap-cap tubes. The tube cultures were incubated overnight with shaking at 37° C.
(§2) Cultures were harvested when the OD570 of a 1:10 dilution was greater than or equal to the following values: 0.083 for Candida glabrata, 0.154 for Candida krusei, 0.117 for Candida lusitaniae, 0.076 for Candida parapsilosis, and 0.192 for Candida tropicalis. Cells were centrifuged for 7 minutes in an Eppendorf microfuge at 3,000 rpm (about 1,500 g). The cell pellet was resuspended in 1 mL PBS and approximately 1×10^7 cells in about 0.5 mL were added to 10 mL of cooled underlay agar (3% SBD, 1% agarose, 0.02% Tween 20, 10 mM sodium phosphate buffer, pH 7.4 at about 45° C.). The suspension was poured into square petri plates, allowed to solidify, and wells cut as described above.
(§3) Peptides were two-fold serially diluted with D-PBS from about 20 μL of a starting concentration of approximately 1 mg/mL. Five μL of peptide dilution were added per well and allowed to diffuse for at least about 30 minutes into the agar at […] (to allow complete diffusion). Then 10 mL of molten overlayer agarose (6% SDB, 1% agarose, 10 mM sodium phosphate buffer, pH 7.4 at about 45° C.) were added and the plates were incubated inverted at […] overnight. Plates were stained with a dilute Coomassie solution, inhibition zones were measured with calipers and net areas were calculated, then converted to pmole values by PROBIT analysis.

Candida lusitaniae = test: Radial diffusion assay, Candida species (Table 2); format: cell-based
Protocol: as §1, §2, §3

Candida tropicalis = test: Radial diffusion assay, Candida species (Table 2); format: cell-based
Protocol: as §1, §2, §3

Candida parapsilosis = test: Radial diffusion assay, Candida species (Table 2); format: cell-based
Protocol: as §1, §2, §3

Candida glabrata = test: Radial diffusion assay, Candida species (Table 2); format: cell-based
Protocol: as §1, §2, §3

[2] = test system: Candida albicans SLU-1 strain; test: Serum stability, anti-fungal activity after serum incubation by radial diffusion bioassay; format: in vitro ADME, rat or human serum
Outline: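 Peptide at 1 mg/mL mixed with an equal volume of rat or human serum and held at 37° C. Samples taken at 0, 1, 2 and 4 h, extracted on C-18 solid phase, then analysed by HPLC, N-terminal sequencing and ESI/MS. Recovered peptides tested against C. albicans SLU-1 by radial diffusion.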

Candida parasilosis = format: cell-based
Protocol: In additional experiments, a fluorescence-activated cell sorter (FACS) based assay was developed to test the fungicidal activity of the peptides. […] Difco) agar. Several colonies were picked from the agar plate and inoculated into 5 mL of Sabouraud's Dextrose media in a sterile 10 mL polypropylene tube. The fungal cultures were incubated for about 18 hours at 30° C. […] The culture were centrifuged at 3000 rpm for 5 minutes (Sorvall RT 6000B). After centrifugation, the supernatant was decanted leaving the fungal pellets in the centrifuge tubes. The pellets were resuspended in 15 mL of SDB. Both suspensions were combined into one tube and mixed to generate a stock culture. […] After determining the concentration of the stock, appropriate dilutions were made with Sabouraud's Dextrose media to obtain 100 mL of 1×10^6 cell/mL. […] After the 1 hour incubation, all the tubes were centrifuged at 3000 rpm for 5 minutes. […] Louis, Mo.) in Dulbecco's PBS (DPBS, GIBCO, Grand Island, N.Y.) except the autofluorescence control, which was resuspended in DPBS alone. The tubes were mixed and incubated in the dark at room temperature for at least 20 minutes. […] The settings were adjusted appropriately to the following approximate parameters: Cells were analyzed (10,000 cells/tube) and their respective fluorescence determined. […] The population of dead (i.e., propidium iodide stained) fungal cells was determined by a fluorescence threshold between the negative control and positive control.

| Compound | IC50 (toxicity/growth inhibition of peptide) (mouse RAW 264.7 cells) | In Vitro LPS Neutralization EC50 [1] [µg/mL] | Anti-fungal activity: pmol/30 mm^2 zone, Candida krusei (Candida krusei) | Anti-fungal activity: pmol/30 mm^2 zone, Candida lusitaniae (Candida lusitaniae) | Anti-fungal activity: pmol/30 mm^2 zone, Candida tropicalis (Candida tropicalis) | Anti-fungal activity: pmol/30 mm^2 zone, Candida parapsilosis (Candida parapsilosis) | Anti-fungal activity: pmol/30 mm^2 zone, Candida glabrata (Candida glabrata) | Activity in Serum t ½ (hr.) [2] | Candida parasilosis IC50 (Candida parasilosis) [µg/mL] |
| --- | --- | --- | --- | --- | --- | --- | --- | --- | --- |
| CC[C@H](C)[C@H](NC(=O)[C@H](CC(C)C)NC(=O)[C@H](Cc1c[nH]c2ccccc12)NC(=O)[C@H](CCCCN)NC(=O)[C@@H](NC(=O)[C@H](CCCCN)NC(=O)[C@H](CO)NC(=O)[C@@H](N)CCCCN)C(C)C)C(=O)N[C@@H](CCC(N)=O)C(=O)N[C@@H](CC(C)C)C(=O)N[C@@H](Cc1ccccc1)C(=O)N[C@@H](Cc1c[nH]cn1)C(=O)N[C@@H](CCCCN)C(=O)N[C@@H](CCCCN)C(N)=O [XMP.97] | >25 µg/mL | 3.69 ± 0.46 | 907 pmol/30 mm^2 zone | 900 pmol/30 mm^2 zone | 193 pmol/30 mm^2 zone | 868 pmol/30 mm^2 zone | 1,786 pmol/30 mm^2 zone | – | – |
| CC[C@H](C)[C@H](NC(=O)[C@H](CC(C)C)NC(=O)[C@H](Cc1ccccc1)NC(=O)CNC(=O)[C@@H](NC(=O)[C@H](CCCCN)NC(=O)[C@H](CO)NC(=O)[C@@H](N)CCCCN)C(C)C)C(=O)N[C@@H](CCC(N)=O)C(=O)N[C@@H](CC(C)C)C(=O)N[C@@H](Cc1ccccc1)C(=O)N[C@@H](Cc1c[nH]cn1)C(=O)N[C@@H](CCCCN)C(=O)N[C@@H](CCCCN)C(N)=O [XMP.127] | NA (NA for IC50 means no evidence of decreased RAW cell growth at up to 50 μg/ml) | 10.77 ± 1.34 | 878 pmol/30 mm^2 zone | 551 pmol/30 mm^2 zone | 373 pmol/30 mm^2 zone | 711 pmol/30 mm^2 zone | 779 pmol/30 mm^2 zone | – | – |
| CC[C@H](C)[C@H](NC(=O)[C@H](CC(C)C)NC(=O)[C@H](Cc1c[nH]c2ccccc12)NC(=O)[C@H](CCCCN)NC(=O)[C@@H](N)CCCCN)C(=O)N[C@@H](CCC(N)=O)C(=O)N[C@@H](CC(C)C)C(=O)N[C@@H](CCCCN)C(=O)N[C@@H](CCCCN)C(N)=O [XMP.327] | NA (NA for IC50 means no evidence of decreased RAW cell growth at up to 50 μg/ml) | 11.92 ± 0.09 | 3,327 pmol/30 mm^2 zone | 120 pmol/30 mm^2 zone | 2,598 pmol/30 mm^2 zone | 119 pmol/30 mm^2 zone | >6,295 pmol/30 mm^2 zone | – | – |
| CC[C@H](C)[C@H](NC(=O)[C@H](CC(C)C)NC(=O)[C@H](Cc1c[nH]c2ccccc12)NC(=O)[C@H](CCCCN)NC(=O)[C@H](CCCCN)NC(C)=O)C(=O)N[C@@H](CCC(N)=O)C(=O)N[C@@H](CC(C)C)C(=O)N[C@@H](CCCCN)C(=O)N[C@@H](CCCCN)C(N)=O [XMP.331] | NA (NA for IC50 means no evidence of decreased RAW cell growth at up to 50 μg/ml) | 14.11 ± 0.35 | >5,467 pmol/30 mm^2 zone | 1,500 pmol/30 mm^2 zone | b (No detectable activity up to 5 μg/well) | 1,451 pmol/30 mm^2 zone | b (No detectable activity up to 5 μg/well) | inactive | – |
| CC[C@H](C)[C@H](NC(=O)[C@H](CC(C)C)NC(=O)[C@H](Cc1c[nH]c2ccccc12)NC(=O)[C@@H](CCCCN)NC(=O)[C@H](N)CCCCN)C(=O)N[C@@H](CCC(N)=O)C(=O)N[C@@H](CC(C)C)C(=O)N[C@H](CCCCN)C(=O)N[C@H](CCCCN)C(N)=O [XMP.342] | – | >50 | – | – | – | – | – | indefinite | – |
| CC[C@@H](C)[C@@H](NC(=O)[C@@H](CC(C)C)NC(=O)[C@@H](Cc1c[nH]c2ccccc12)NC(=O)[C@H](N)CCCCN)C(=O)N[C@H](CCC(N)=O)C(=O)N[C@H](CC(C)C)C(=O)N[C@H](Cc1ccccc1)C(=O)N[C@H](Cc1c[nH]cn1)C(=O)N[C@H](CCCCN)C(=O)N[C@H](CCCCN)C(N)=O [XMP.365] | – | – | – | – | – | – | – | – | 7.72 |
| CC[C@@H](C)[C@@H](NC(=O)[C@@H](CCC(N)=O)NC(=O)[C@@H](CC(C)C)NC(=O)[C@@H](Cc1ccccc1)NC(=O)[C@@H](Cc1c[nH]cn1)NC(=O)[C@@H](CCCCN)NC(=O)[C@H](N)CCCCN)C(=O)N[C@H](CC(C)C)C(=O)N[C@H](Cc1c[nH]c2ccccc12)C(=O)N[C@H](CCCCN)C(N)=O [XMP.367] | – | – | – | – | – | – | – | indefinite | 2.32 |
| CC[C@H](C)[C@H](NC(=O)[C@H](CC(C)C)NC(=O)[C@H](Cc1c[nH]c2ccccc12)NC(=O)[C@H](CCCCN)NC(C)=O)C(=O)N[C@@H](CCC(N)=O)C(=O)N[C@@H](CC(C)C)C(=O)N[C@@H](Cc1ccccc1)C(=O)N[C@@H](Cc1c[nH]cn1)C(=O)N[C@@H](CCCCN)C(=O)N[C@@H](CCCCN)C(N)=O [XMP.373] | – | – | – | – | – | – | – | – | 3.74 |
| CC[C@H](C)[C@H](NC(=O)[C@H](CC(C)C)NC(=O)[C@H](Cc1c[nH]c2ccccc12)NC(=O)CNC(=O)[C@@H](N)CCCCN)C(=O)N[C@@H](CCC(N)=O)C(=O)N[C@@H](CC(C)C)C(=O)N[C@@H](Cc1ccccc1)C(=O)N[C@@H](Cc1c[nH]cn1)C(=O)N[C@@H](CCCCN)C(=O)N[C@@H](CCCCN)C(N)=O [XMP.389] | – | – | – | – | – | – | – | – | 5.36 |
| CC[C@H](C)[C@H](NC(=O)[C@H](CC(C)C)NC(=O)[C@H](Cc1c[nH]c2ccccc12)NC(=O)CNC(=O)[C@@H](NC(=O)[C@@H](N)CCCCN)C(C)C)C(=O)N[C@@H](CCC(N)=O)C(=O)N[C@@H](CC(C)C)C(=O)N[C@@H](Cc1ccccc1)C(=O)N[C@@H](Cc1c[nH]cn1)C(=O)N[C@@H](CCCCN)C(=O)N[C@@H](CCCCN)C(N)=O [XMP.391] | – | – | – | – | – | – | – | – | 0.85 |
